One compound from paper PMC10949176 (Clinical and Translational Science, 2024) can be followed below.

A short description of this data set: Stability of ABT in Hμrel coculture. In kind it is in vitro ADME, human. Conditions: Hμrel co-culture cells, media samples, up to 72 h.

Molecules are shown by their SMILES.

For `Nn1nnc2ccccc21` [ABT, Aminobenzotriazole], the “concentrations of ABT relative to 0 h (stability)” value was “remained stable for 72 h”.
